AlphaSeq binding of Ab-14 heavy chain variants to a spike HR2 peptide

Values reported by Engelhart et al. 2022, doi:10.1038/s41597-022-01779-4 (FLAb copy).

Binding partner: SARS-CoV-2 spike HR2 peptide, sequence PDVDLGDISGINAS.

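The parent was found by panning a naive human phage display library on the peptide. AAYL49 was designed without a model: most single CDR substitutions and a random sample of double and triple ones. AlphaSeq pools MATa yeast showing the antibodies with MATalpha yeast showing the peptide. After mating in shaken culture at 30 °C for 16 h, diploids were selected and their barcode pairs sequenced. The ratio of observed to expected reads was calibrated, replicate by replicate, on BCL2-family standards whose Kd was known from biolayer interferometry. There are three technical replicates.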

Ab-14 is the parent antibody, in scFv form: VH, then the linker GGGGSGGGGSGGGGS, then VL. The light chain is unchanged in all variants.
VH: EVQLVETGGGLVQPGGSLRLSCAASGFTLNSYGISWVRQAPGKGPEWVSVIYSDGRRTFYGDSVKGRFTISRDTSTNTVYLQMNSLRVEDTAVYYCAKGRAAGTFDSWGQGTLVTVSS
VL: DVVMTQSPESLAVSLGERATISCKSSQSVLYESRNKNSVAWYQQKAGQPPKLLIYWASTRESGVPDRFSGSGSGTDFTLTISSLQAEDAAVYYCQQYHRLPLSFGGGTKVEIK

Changes read parent residue, position, new residue, counted from the first residue of the VH shown.
Every variant below is changed at G99 of the VH (sequential numbering).
Kd is apparent (estimated from mating counts) and averaged on the log scale over replicates with a signal. Smaller is tighter.
A pair that was not seen in any replicate is written "nd"; this usually means weak binding, but a binder can also be missed.
As a blank, each scFv also met three strains without target: over library AAYL49, 15% of these pairings were detected, typically at 11 µM and seldom below 680 nM. The control count says in how many pairings with the empty strains this scFv gave a signal.
For reference, the parent read 4.4 nM as the reference entry and 13 µM (one replicate of three) as a member of this library.

- F27Q I34E G99L -> 1.2 µM (1 of 3 replicates; controls 1 of 9)
- D54R G99Y F105R -> nd (0 of 3 replicates; controls 4 of 9)
- D54F G99R T104S -> 1.8 µM (1 of 3 replicates; controls 0 of 9)
- G61A K65P G99R -> nd (0 of 3 replicates; controls 0 of 9)
- S35C G99D A102S -> nd (0 of 3 replicates; controls 0 of 9)
- F27E Y32G G99P -> nd (0 of 3 replicates; controls 1 of 9)
- N30M G99D F105W -> nd (0 of 3 replicates; controls 0 of 9)
- I34R G99V G103W -> nd (0 of 3 replicates; controls 0 of 9)
- G26V G99S G103F -> nd (0 of 3 replicates; controls 0 of 9)
- S31V G99E D106A -> nd (0 of 3 replicates; controls 0 of 9)
- G26N R56C G99N -> 1.5 µM (3 of 3 replicates; controls 8 of 9)
- G55E G99Y -> 5.3 µM (2 of 3 replicates; controls 3 of 9)
- Y32L G55W G99A -> nd (0 of 3 replicates; controls 1 of 9)
- T58A G99Q T104L -> nd (0 of 3 replicates; controls 2 of 9)
- F59N G99P A102Y -> nd (0 of 3 replicates; controls 0 of 9)
- V64A G99K T104L -> 86 µM (1 of 3 replicates; controls 0 of 9)
- G55H R56W G99S -> 9.4 µM (1 of 3 replicates; controls 3 of 9)
- S31Q G99N -> 850 pM (3 of 3 replicates; controls 1 of 9)
- N30I G99S S107F -> nd (0 of 3 replicates; controls 1 of 9)
- T28Y G99R A102K -> 4.0 µM (2 of 3 replicates; controls 2 of 9)
- S53T G61T G99I -> 39 µM (2 of 3 replicates; controls 3 of 9)
- G33W S63N G99L -> 40 µM (1 of 3 replicates; controls 1 of 9)
- S35A G55P G99L -> nd (0 of 3 replicates; controls 1 of 9)
- K65D G99F -> 30 µM (2 of 3 replicates; controls 3 of 9)
- L29A S35L G99C -> nd (0 of 3 replicates; controls 0 of 9)
- D62V G99H G103L -> nd (0 of 3 replicates; controls 0 of 9)
- G99Q D106S -> nd (0 of 3 replicates; controls 2 of 9)
- G99M T104L D106C -> 29 nM (3 of 3 replicates; controls 2 of 9)
- G99S -> 460 µM (1 of 3 replicates; controls 1 of 9)
- D54C G99N A102Q -> nd (0 of 3 replicates; controls 0 of 9)
- S35F V64H G99W -> 10 µM (1 of 3 replicates; controls 1 of 9)
- S35D Y60K G99L -> 1.1 µM (1 of 3 replicates; controls 0 of 9)
- T28G R56F G99A -> 9.5 µM (1 of 3 replicates; controls 1 of 9)
- R57A G99A D106C -> 640 nM (1 of 3 replicates; controls 0 of 9)
- D62T V64W G99E -> nd (0 of 3 replicates; controls 0 of 9)
- G99M -> nd (0 of 3 replicates; controls 0 of 9)
- S31E K65A G99C -> 11 µM (1 of 3 replicates; controls 0 of 9)
- S63D G99D -> 26 nM (3 of 3 replicates; controls 0 of 9)
- F27S Y52E G99Y -> 8.5 µM (1 of 3 replicates; controls 5 of 9)
- R57P G99D -> nd (0 of 3 replicates; controls 0 of 9)
- Y32M G99Q -> nd (0 of 3 replicates; controls 2 of 9)

A selection of 5 entries from above:

changes	Kd (apparent)	seen in	signal with controls
S31V G99E D106A	nd	0 of 3	0 of 9
G26V G99S G103F	nd	0 of 3	0 of 9
D54F G99R T104S	1.8 µM	1 of 3	0 of 9
G99S	460 µM	1 of 3	1 of 9
F59N G99P A102Y	nd	0 of 3	0 of 9